Earlier results, collected in paper PMC10301001, “Radiochemical and Biological Evaluation of 3p-C-NETA-ePSMA-16, a Promising PSMA-Targeting Agent for Radiotheranostics” (Pharmaceuticals, 2023).
Like-named read-outs stand apart in the source and are kept apart here.

System: tumor
Details: in vivo, cited from earlier work

^205/6Bi-3p-C-NETA-trastuzumab: 3p-C-NETA-NCS conjugated with the antibody trastuzumab, labeled with 205/206Bi
blood uptake (2 h): 21.89 ± 5.9 % ID/g
Tumor uptake (24 h): 24.10 ± 4.8 % ID/g
blood uptake (24 h): 9.92 ± 2.2 % ID/g
